Measurements: patent publication US7713994B2 (Wyeth LLC, priority 2005, dated 2010)
Like-named read-outs stand apart in the source and are kept apart here.

Chains of the proteins cited; added tags and fusions are not shown.
UniProt P11802, whole entry, species assumed: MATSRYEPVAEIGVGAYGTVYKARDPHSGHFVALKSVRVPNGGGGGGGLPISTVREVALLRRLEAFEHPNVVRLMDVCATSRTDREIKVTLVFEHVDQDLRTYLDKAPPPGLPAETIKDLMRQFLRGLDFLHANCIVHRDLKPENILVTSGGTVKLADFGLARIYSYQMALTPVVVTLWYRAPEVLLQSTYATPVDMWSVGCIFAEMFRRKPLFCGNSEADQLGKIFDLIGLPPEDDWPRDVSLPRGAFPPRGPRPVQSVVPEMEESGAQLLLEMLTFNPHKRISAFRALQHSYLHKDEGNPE
UniProt P06493, whole entry: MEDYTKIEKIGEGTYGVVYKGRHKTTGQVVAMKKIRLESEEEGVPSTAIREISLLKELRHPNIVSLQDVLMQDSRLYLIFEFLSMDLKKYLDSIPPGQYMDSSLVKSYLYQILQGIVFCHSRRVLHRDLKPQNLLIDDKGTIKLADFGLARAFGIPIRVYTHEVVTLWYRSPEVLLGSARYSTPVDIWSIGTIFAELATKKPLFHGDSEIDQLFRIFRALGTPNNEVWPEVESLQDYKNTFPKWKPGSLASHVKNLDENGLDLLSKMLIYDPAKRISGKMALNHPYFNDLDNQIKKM

Columns and labels:
[1] = tested on: HCT-116; assay: Cytotoxicity assay (SRB), HCT-116; assay type: cell-based; settings: Homo sapiens, HCT-116, 72 h, HCT116 cells, read-out: In Vitro Cellular Activity IC50 HCT116
Protocol: (§1) BT474, HCT-116, LoVo and MCF-7 were maintained under 7% CO2 in RPMI 1640 medium supplemented with 10% fetal bovine serum and 50 µg/ml gentamicin.
(§2) Cells were plated in 96-well microtiter dishes (12000 cells/well for BT474, 4000 cells/well for HCT-116, 6000 cells/well for LoVo and 6000 cells/well for MCF-7) in RPMI 1640 medium containing 5% fetal bovine serum and 50 µg/ml gentamicin. The cells were allowed to incubate overnight at 37° C., 7% CO2. Compound dilutions were prepared using the same medium. HCT-116, LoVo and MCF-7 cells were cultured for three days and BT474 cells were cultured for 6 days, in the presence of each compound dilution. Untreated cells were included as controls. The percentage of surviving cells was determined using a protein binding dye (sulforhodamineB, SRB) assay. Cellular protein was precipitated in each well by the addition of 0.05 ml of 50% cold trichloroacetic acid (TCA). After 1 hour, the plates were washed extensively in dH2O and dried. The sulforhodamineB dye solution (0.08 mL of 0.4% SRB in 1% acetic acid) was added to each well, kept at room temperature for ten minutes, then washed in 1% acetic acid and dried. The dye was dissolved in 10 mM Tris-HCl (150 uL) and the absorbency read at 540 nm.

[2] = tested on: MCF-7; assay: Cytotoxicity assay (SRB), MCF-7; assay type: cell-based; settings: Homo sapiens, MCF7, 72 h, MCF-7 cells, read-out: In Vitro Cellular Activity IC50 MCF-7
Protocol: as §1, §2

[3] = biological target: T1, cyclin E/CDK2 enzyme (Homo sapiens, UniProt P24941); assay: CDK2 ELISA kinase assay (phospho-Rb ser 795 detection); assay type: biochemical; settings: In Vitro Enzyme Assays
T1 construct: made in house; host or cells: Sf9 insect cells, recombinant baculovirus
Protocol: • 1. High-binding ELISA microtiter plates (Costar) were coated with 40 μl of the kinase substrate (GST fusion of C-terminal fragment of the retinoblastoma susceptibility gene product) diluted to 10 μg/ml in tris-buffered saline (TBS), overnight at 4° C. • 2. Non-specific binding sites were blocked for 1 hour at 4° C. with Superblock in TBS (Pierce), and the plates rinsed with water. • 3. For the screen, 1.5 μl of test compound (200 μg/ml stock in 20% DMSO/20 mM HEPES, pH 7.5) was added to each well. Final dose of the test compound in the assay was 10 ug/ml. […] The kinase reaction (30 μl) was dispensed into each well. Reactions contained 200 μM ATP, 0.5 mg/ml bovine serum albumin (BSA; Sigma), and 0.5 μl partially purified cyclin D1/cdk 4 enzyme*. The enzyme complex is expressed in insect cells (Sf9) infected with recombinant baculovirus and partially purified using ammonium sulfate fractionation. Reaction volumes were adjusted to 30 μl with kinase assay buffer (50 mM HEPES, pH 7.5, 10 mM MgCl2, 5% glycerol, 10 mM 2-mercaptoethanol). • *: For CDK2 assay, 1.0 μl cyclin E/CDK2 enzyme (diluted 1:1000 in kinase assay buffer) was used. The enzyme is isolated from insect cells (Sf9) infected with recombinant baculovirus and partially purified using ammonium sulfate fractionation. For CDK1 assay, 0.08 μl cyclin B/CDK1 enzyme [New England BioLabs; the enzyme is isolated from insect cells (Sf9) infected with recombinant baculovirus carrying human cdc 2 and human cyclin B] was used.
• Hunter, T. and Pines, J. Cyclins and Cancer II: Cyclin D and CDK come of age. Cell 79, 573-582 (1994). • Rao, R. N. Targets for cancer therapy in the cell cycle pathway. Curr. Opinion in Oncol. 8, 516-524 (1996). • 5. Plates were incubated at 30° C. for 1 hour. • 6. The reaction mixture was removed by aspiration and replaced with 250 μl TBS containing 0.1% Tween-20 and 5% nonfat dry milk (blocking buffer). The plates were incubated at 4° C. for 1 hour. • 7. The blocking buffer was removed and replaced with 50 μl of the primary antibody [anti-phospho-Rb ser 795 (New England BioLabs) diluted 1:1000 in blocking buffer]. Incubation was at 4° C. for 16-20 hours. • 8. […] The reaction was stopped by the addition of 2N sulfuric acid (100 μl) and the absorbance values read at 450 nm in a microplate reader (Molecular Devices). […] The percentage of the absorbance value in wells containing the test compound relative to control wells (no test agent) was determined. • 2. IC50 values of selected compounds were determined from inhibition curves, after subtracting background values (no substrate).

[4] = tested on: BT474; assay: Cytotoxicity assay (SRB), BT474; assay type: cell-based; settings: Homo sapiens, BT-474, 144 h, BT474 cells, 6 days, read-out: In Vitro Cellular Activity IC50 BT474
Protocol: as §1, §2

[5] = biological target: T2, cyclin D1/cdk 4 enzyme (Homo sapiens, UniProt P11802); assay: CDK4 ELISA kinase assay (phospho-Rb ser 795 detection); assay type: biochemical; settings: In Vitro Enzyme Assays, 200 μM ATP
T2 construct: made in house; host or cells: Sf9 insect cells, recombinant baculovirus
Protocol: (§3) • 1. High-binding ELISA microtiter plates (Costar) were coated with 40 μl of the kinase substrate (GST fusion of C-terminal fragment of the retinoblastoma susceptibility gene product) diluted to 10 μg/ml in tris-buffered saline (TBS), overnight at 4° C. • 2. Non-specific binding sites were blocked for 1 hour at 4° C. with Superblock in TBS (Pierce), and the plates rinsed with water. • 3. For the screen, 1.5 μl of test compound (200 μg/ml stock in 20% DMSO/20 mM HEPES, pH 7.5) was added to each well. Final dose of the test compound in the assay was 10 ug/ml. […] The kinase reaction (30 μl) was dispensed into each well. Reactions contained 200 μM ATP, 0.5 mg/ml bovine serum albumin (BSA; Sigma), and 0.5 μl partially purified cyclin D1/cdk 4 enzyme*. The enzyme complex is expressed in insect cells (Sf9) infected with recombinant baculovirus and partially purified using ammonium sulfate fractionation. […]
(§4) • Hunter, T. and Pines, J. Cyclins and Cancer II: Cyclin D and CDK come of age. […] The reaction was stopped by the addition of 2N sulfuric acid (100 μl) and the absorbance values read at 450 nm in a microplate reader (Molecular Devices). […] The percentage of the absorbance value in wells containing the test compound relative to control wells (no test agent) was determined. • 2. IC50 values of selected compounds were determined from inhibition curves, after subtracting background values (no substrate).

[6] = biological target: T3, cyclin B/CDK1 enzyme (Homo sapiens, UniProt P06493); assay: CDK1 ELISA kinase assay (phospho-Rb ser 795 detection); assay type: biochemical; settings: In Vitro Enzyme Assays
T3 construct: purchased New England BioLabs; host or cells: Sf9 insect cells, recombinant baculovirus
Protocol: as §3, §4

Compound | IC50 ([1]; three days) [nM] | IC50 ([2]; three days) [nM] | also measured
CN1CCN(c2ccc(N/C=C3\C(=O)NC(=O)c4ccc(I)cc43)cc2)CC1 [Example 81, (4Z)-6-Iodo-4-({[4-(4-methylpiperazin-1-yl)phenyl]amino}methylene)isoquinoline-1,3(2H,4H)-dione] | 2800 | 2500 | –
O=C1NC(=O)c2ccc(-c3ccccc3)cc2/C1=C/Nc1ccc(CN2CCCCC2)cc1 [Example 95] | 2400 | 2900 | –
CC(=O)Oc1ccc(CN/C=C2\C(=O)NC(=O)c3ccccc32)cc1OC(C)=O [Example 47, 2-(Acetyloxy)-4-({[(Z)-(1,3-dioxo-2,3-dihydroisoquinolin-4(1H)-ylidene)methyl]amino}-methyl)phenyl acetate] | – | – | IC50 [3]: 18100 nM; IC50 [4]: 20000 nM
O=C1NC(=O)c2ccc(Nc3ccccc3)cc2/C1=C/Nc1ccc(CN2CCCCC2)cc1 [Example 128, (4Z)-6-Anilino-4-({[4-(piperidin-1-ylmethyl)phenyl]amino}methylene)isoquinoline-1,3(2H,4H)-dione] | 1500 | 2300 | –
C[C@@H]1CN(c2ccc(N/C=C3\C(=O)NC(=O)c4ccc(I)cc43)cc2)C[C@H](C)N1 [Example 216, (4Z)-4-({[4-(3,5-Dimethylpiperazin-1-yl)phenyl]amino}methylene)-6-iodoisoquinoline-1,3(2H,4H)-dione] | 760 | 1600 | –
CC1CN(c2ccc(N/C=C3\C(=O)NC(=O)c4ccc(I)cc43)cc2)CCN1C (stereo not shown) [Example 248, (4Z)-4-({[4-(3,4-Dimethylpiperazin-1-yl)phenyl]amino}methylene)-6-iodoisoquinoline-1,3(2H,4H)-dione] | – | 1900 | –
CN1CCN(Cc2ccc(N/C=C3\C(=O)NC(=O)c4ccccc43)cc2)CC1 [Example 20] | – | – | IC50 [3]: 26000 nM
CC1CN(c2ccc(N/C=C3\C(=O)NC(=O)c4ccc([N+](=O)[O-])cc43)cc2)CC(C)N1 (stereo not shown) [Example 235, (4Z)-4-({[4-(3,5-Dimethylpiperazin-1-yl)phenyl]amino}methylene)-6-nitroisoquinoline-1,3(2H,4H)-dione] | – | – | IC50 [3]: 23100 nM
CN1CCN(c2ccc(N/C=C3\C(=O)NC(=O)c4ccc(-c5ccoc5)cc43)nc2)CC1 [Example 443, (4Z)-6-(3-Furyl)-4-({[5-(4-methylpiperazin-1-yl)pyridin-2-yl]amino}methylene)isoquinoline-1,3(2H,4H)-dione] | – | – | IC50 ([1]; 3 days): 760 nM; IC50 ([2]; 3 days): 1600 nM
CN1CCN(c2ccc(N/C=C3\C(=O)NC(=O)c4ccc(-c5ccoc5)cc43)cn2)CC1 [Example 249, (4Z)-6-(3-Furyl)-4-({[6-(4-methylpiperazin-1-yl)pyridin-3-′yl]amino}methylene)isoquinoline-1,3(2H,4H)-dione] | 2100 | 1700 | –
CN1CCN(c2ccc(NC=C3C(=O)NC(=O)c4ccc(-c5ccccc5)cc43)cc2)CC1 [Example 831, 4-{[4-(4-Methyl-piperazin-1-yl)-phenylamino]-methylene}-6-phenyl-4H-isoquinoline-1,3-dione] | – | – | IC50 ([1]; 3 days): 2800 nM; IC50 ([2]; 3 days): 7300 nM
C[C@@H]1CN(c2ccc(N/C=C3\C(=O)NC(=O)c4ccc(I)cc43)cc2)C[C@H](C)N1C [Example 234, (4Z)-6-Iodo-4-[({4-[(3R,5S)-3,4,5-trimethylpiperazin-1-yl]phenyl}amino)methylene]-isoquinoline-1,3(2H,4H)-dione] | 2100 | 1300 | –
O=C1NC(=O)c2ccc(-c3ccc(O)cc3)cc2/C1=C/Nc1ccc(CN2CCCCC2)cc1 [Example 103] | 1600 | – | –
N#Cc1ccc2c(c1)/C(=C/Nc1ccc(CN3CCCCC3)cc1)C(=O)NC2=O [Example 110, (4Z)-1,3-Dioxo-4-({[4-(piperidin-1-ylmethyl)phenyl]amino}methylene)1,2,3,4-tetrahydroisoquinoline-6-carbonitrile] | – | – | IC50 [3]: 26500 nM; IC50 [5]: 15800 nM; IC50 [6]: 15800 nM
